From article PMC7039645 (mAbs, 2020)

Target: human epidermal growth factor receptor 2 (Homo sapiens, UniProt P04626)
Test: SPR

- Kd: 0.13 nM
- koff: 0.00011 s⁻¹
- kon: 720000 M⁻¹ s⁻¹
B1: hu4D5 Fab (Fab, V domains shown)
VH: [about 120 residues not written out]
VL: DIQMTQSPSSLSASVGDRVTITCRASQDVNTAVAWYQQKPGKAPKLLIYSASFLYSGVPSRFSGSRSGTDFTLTISSLQPEDFATYYCQQHYTTPPTFGQGTKVEIK
